Target: estrogen receptor (Sus scrofa, UniProt Q29040)
Experiment: Saturation estrogen receptor assay with [^3H]estradiol and Scatchard analysis in pig uterus
Format: binding
Set-up: Uteri cytosol (2 mg protein/tube) were incubated at 4 ° C for 2 h with [^3H]estradiol; from tissue; host or cells: uterus cytosol of immature domestic swine (100,000 g supernatant, charcoal-treated)
Settings: Scatchard analysis

The chains behind the UniProt entries cited, without tags or fusion partners.
UniProt Q29040, whole entry: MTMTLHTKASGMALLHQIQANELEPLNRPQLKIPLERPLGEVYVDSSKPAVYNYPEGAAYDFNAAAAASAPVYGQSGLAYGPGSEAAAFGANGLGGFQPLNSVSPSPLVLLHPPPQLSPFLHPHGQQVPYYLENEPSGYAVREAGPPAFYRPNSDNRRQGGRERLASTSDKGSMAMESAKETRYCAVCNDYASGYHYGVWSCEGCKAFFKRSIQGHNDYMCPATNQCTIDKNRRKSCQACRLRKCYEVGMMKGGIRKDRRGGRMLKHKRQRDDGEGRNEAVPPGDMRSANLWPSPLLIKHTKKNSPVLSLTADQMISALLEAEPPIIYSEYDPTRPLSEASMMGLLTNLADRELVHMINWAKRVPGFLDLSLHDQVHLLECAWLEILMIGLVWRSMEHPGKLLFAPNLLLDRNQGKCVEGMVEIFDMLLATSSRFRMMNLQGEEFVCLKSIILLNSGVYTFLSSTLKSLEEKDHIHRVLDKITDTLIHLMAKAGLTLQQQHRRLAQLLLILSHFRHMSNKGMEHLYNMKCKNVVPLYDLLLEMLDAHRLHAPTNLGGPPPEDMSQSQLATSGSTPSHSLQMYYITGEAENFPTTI

With [^3H]estradiol the Hill coefficient was 0.982.

From patent EP0551434B1 (BOARD OF REGENTS THE UNIVERSITY OF TEXAS SYSTEM, priority 1990, dated 1992)
